Assay results from PubChem BioAssay (NCI).
Some of these compounds have results that are not shown, active ones among them.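 Values below derive from 48-hour exposures of cells grown in 96-well plates, with endpoints linearly interpolated between the two concentrations bracketing the appropriate inhibition level. GI50 marks 50% less growth.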

How the values were obtained:
Assay in all cases: NCI tumour cell line growth inhibition, 48 h; in the data active means GI50 below about 0.43 µM; inactive means the rest
[1] = tested on: SK-MEL-28 melanoma
[2] = tested on: 786-0 renal
[3] = tested on: HL-60(TB) leukemia
[4] = tested on: HCT-15 colon
[5] = tested on: SF-268 CNS
[6] = tested on: SF-539 CNS
[7] = tested on: BT-549 breast
[8] = tested on: MCF7 breast
[9] = tested on: RPMI-8226 leukemia
[10] = tested on: SNB-75 CNS
[11] = tested on: SNB-19 CNS
[12] = tested on: DU-145 prostate
[13] = tested on: HOP-92 NSCLC
[14] = tested on: K-562 leukemia
[15] = tested on: T-47D breast
[16] = tested on: COLO 205 colon
[17] = tested on: IGROV1 ovarian
[18] = tested on: SW-620 colon
[19] = tested on: SN12C renal
[20] = tested on: OVCAR-5 ovarian
[21] = tested on: KM12 colon
[22] = tested on: SK-MEL-5 melanoma
[23] = tested on: LOX IMVI melanoma
[24] = tested on: MOLT-4 leukemia
[25] = tested on: SK-OV-3 ovarian
[26] = tested on: CAKI-1 renal
[27] = tested on: U251 CNS
[28] = tested on: NCI-H322M lung
[29] = tested on: RXF 393 renal
[30] = tested on: HS 578T breast
[31] = tested on: HT29 colon
[32] = tested on: SR leukemia
[33] = tested on: SF-295 CNS
[34] = tested on: NCI-H226 lung
[35] = tested on: NCI/ADR-RES ovarian
[36] = tested on: ACHN renal
[37] = tested on: NCI-H522 lung
[38] = tested on: UACC-257 melanoma
[39] = tested on: OVCAR-3 ovarian
[40] = tested on: HOP-62 NSCLC
[41] = tested on: HCT-116 colon
[42] = tested on: PC-3 prostate
[43] = tested on: EKVX NSCLC
[44] = tested on: A549 NSCLC
[45] = tested on: OVCAR-8 ovarian
[46] = tested on: UACC-62 melanoma
[47] = tested on: MALME-3M melanoma
[48] = tested on: NCI-H23 lung
[49] = tested on: TK-10 renal
[50] = tested on: MDA-MB-435
[51] = tested on: MDA-N
[52] = tested on: SK-MEL-2 melanoma
[53] = tested on: CCRF-CEM leukemia
[54] = tested on: NCI-H460 lung
[55] = tested on: M14 melanoma
[56] = tested on: A498 renal
[57] = tested on: MDA-MB-231 breast
[58] = tested on: OVCAR-4 ovarian

Measured: GI50

CN1CCCC(OC(=O)C(O)(c2ccccc2)C2CCCC2)C1 (stereo not drawn)
inactive: [1] > 100 µM | [2] > 100 µM | [3] > 100 µM | [4] > 100 µM | [5] > 100 µM | [6] > 100 µM | [7] > 100 µM | [8] > 100 µM | [9] > 100 µM | [10] > 100 µM | [11] > 100 µM | [12] > 100 µM | [13] > 100 µM | [14] > 100 µM | [15] > 100 µM | [16] > 100 µM | [17] > 100 µM | [18] > 100 µM | [19] > 100 µM | [20] > 100 µM | [21] > 100 µM | [22] > 100 µM | [23] > 100 µM | [24] 91.4 µM | [25] > 100 µM | [26] > 100 µM | [27] > 100 µM | [28] > 100 µM | [29] > 100 µM | [30] > 100 µM | [31] > 100 µM | [32] > 100 µM | [33] > 100 µM | [34] > 100 µM | [35] > 100 µM | [36] > 100 µM | [37] > 100 µM | [38] > 100 µM | [39] > 100 µM | [40] > 100 µM | [41] > 100 µM | [42] > 100 µM | [43] > 100 µM | [44] > 100 µM | [45] > 100 µM | [46] > 100 µM | [47] > 100 µM | [48] > 100 µM | [49] > 100 µM | [50] > 100 µM | [51] > 100 µM | [52] > 100 µM | [53] > 100 µM | [54] > 100 µM | [55] > 100 µM | [56] > 100 µM | [57] > 100 µM | [58] > 100 µM
